Data: ChEMBL document CHEMBL4007512, “Discovery of Selective Phosphodiesterase 1 Inhibitors with Memory Enhancing Properties” (J Med Chem, 2017)

Protein sequences, listed by entry. Tags and fused reporters are not part of them. Lines headed by an entry give the natural chain unless they say otherwise; changes in a name come on top.
UniProt Q01064: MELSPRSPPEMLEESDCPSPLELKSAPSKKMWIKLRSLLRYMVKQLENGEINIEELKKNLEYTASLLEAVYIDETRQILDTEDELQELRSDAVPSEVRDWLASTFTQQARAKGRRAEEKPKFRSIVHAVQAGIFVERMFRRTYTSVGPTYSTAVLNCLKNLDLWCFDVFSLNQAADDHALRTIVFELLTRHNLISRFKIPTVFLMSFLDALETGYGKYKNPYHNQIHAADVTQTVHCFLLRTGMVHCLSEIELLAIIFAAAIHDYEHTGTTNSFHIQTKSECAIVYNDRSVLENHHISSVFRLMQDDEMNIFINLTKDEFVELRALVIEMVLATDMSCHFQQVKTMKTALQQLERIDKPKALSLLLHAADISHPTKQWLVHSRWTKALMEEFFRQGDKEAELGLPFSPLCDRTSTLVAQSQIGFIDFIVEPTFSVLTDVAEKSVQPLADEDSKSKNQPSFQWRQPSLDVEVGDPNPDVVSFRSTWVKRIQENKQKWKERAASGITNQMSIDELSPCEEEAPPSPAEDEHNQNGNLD

Target: Dual specificity calcium/calmodulin-dependent 3',5'-cyclic nucleotide phosphodiesterase 1B (Homo sapiens, UniProt Q01064)
Assay: Inhibition of PDE1B (unknown origin)

IC50: 0.058 nM
Structure (SMILES): CN1C(=O)c2c(nn(Cc3ccc(-c4cccc(F)n4)cc3)c2Nc2ccccc2)N2C1=N[C@@H]1CCC[C@@H]12 [LENRISPODUN PHOSPHATE]
